# Screens: PubChem, National Center for Advancing Translational Sciences (NCATS)
# Rango dissoc inh: prevents RanGTP from dissociating the Rango-importin beta complex; 340,000 tested, 0.071% active; Biochemical FRET Rango-importin beta, RanGTP-induced dissociation; Potency, µM (titrated, usually from 46.1 µM), inactives show at the highest dose activity change, negative = inhibition; further: potency means the concentration at half of the fitted maximal effect; % of control where 0% means no effect; nearly all actives have a fitted effect of over 45% in size
#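 Compounds preincubate 5 min with complex of recombinant Rango and importin beta in PBS with 1 mM DTT. Ran (0.6 uM) loaded with 2 mM GTP plus 0.2 uM RCC1 starts dissociation; FRET is recorded 45 min later.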
# B2AR arrestin: agonists driving beta-arrestin recruitment to human beta2-adrenergic receptor. P07550. beta-arrestin recruitment to beta2AR, cell-based reporter. Potency, µM (doses to about 46.1 µM), for the others: top-dose activation, most hits filed as activators. 330,000 tested, 0.02% active. AID 492947; active means well fitted curve in the direction sought with a large enough effect; inconclusive means small, poorly fitted or top-dose-only effect, or another doubt; inactive means no such curve, though single readings can be large; an effect the other way counts as inactive or inconclusive;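 further: potency means the concentration at half of the fitted maximal effect; 0% = DMSO controls and full agonism = EC100 isoproterenol or metaproterenol; nearly all actives have a fitted effect of over 65% in size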
# Mm-Cpn inhibitor: M. maripaludis TRiC chaperonin inhibition | AID 504842 | purified Mm-Cpn ATPase, ADP Transcreener TR-FRET | 330,000 tested, 0.031% active | Potency, µM (top dose mostly 76.9 µM), for the others: top-dose activity, negative = inhibition, usual class: inhibitors; active means well fitted curve in the direction sought with a large enough effect; inconclusive means small, poorly fitted or top-dose-only effect, or another doubt; inactive means no such curve, though single readings can be large; an effect the other way counts as inactive or inconclusive; further: potency means the concentration at half of the fitted maximal effect; on the % scale 0 is the no-effect control and ±100 the full control effect; nearly all actives have a fitted effect of over 80% in size
#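 25 nM Mm-CPN + cpd, 10 min 37°C; + 10 uM ATP, 30 min 37°C; buffer 30 mM Tris pH 7.4, 100 mM KCl, 5 mM MgCl2, 1 mM DTT; Transcreener ADP HTRF detection 30 min RT.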
# Rango-impB inh: prevents formation of the Rango-importin beta complex; Rango CFP/YFP FRET sensor + importin beta, 45 min; AID 540263; 340,000 tested, 0.031% active; Potency, µM (titrated, usually from 92.2 µM), for the others: at the highest dose inhibition of complex formation;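 further: potency means the concentration at half of the fitted maximal effect; 0% = DMSO wells and 100% = buffer wells lacking importin beta; nearly all actives have a fitted effect of over 15% in size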
#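 FRET biosensor (snurportin 1 IBB flanked by EYFP and cerulean), 50 nM, with compound 5 min, then 0.125 microM importin beta in PBS, 1 mM DTT, 0.02% Tween-20, 0.1% BSA. CFP/YFP ratio read after 45 min at room temperature; pre-read flags interference.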
# CCT modulator: modulators of cytosolic chaperonin (CCT/TRiC) activity; purified chaperonin ATPase assay, HTRF ADP detection, 30 min; activity change, % (no concentration beside the values), hits read low; 360,000 tested, 0.3% active; AID 651819; in the data active means activity change below about -30%; further: on the % scale 0 is the no-effect control and ±100 the full control effect
#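 Nucleotide hydrolysis assay: TRiC at 20–40 nM final (set by batch activity) with 10 uM ATP, 30 min at 37 °C, in presence of 76 uM compound. Detection by competitive ADP HTRF, 30 min ambient.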
# An asterisk follows results filed as active; ? = inconclusive; nt = no result. Most compounds without a hit are left out; they make up all but 0.43% or so of the library. Unless noted, the call rests on the fitted dose curve.
# Assay codes: A = Rango dissoc inh; B = B2AR arrestin; C = Mm-Cpn inhibitor; D = Rango-impB inh; E = CCT modulator
1) C#CCOCCOCCOCCNc1nc(N2CCN(C(=O)CCCCCCCCCCNC(=O)[C@H]([C@@H](C)CC)n3cc(CCCCN=C(N)N)nn3)CC2)nc(N2CCN(C(=O)CCCCCCCCCCNC(=O)[C@H](CO)n3cc(CCCCCN)nn3)CC2)n1
  A: ?; B: 0.0%; C: 2.4%; D: 73.1µM*; E: -0.6

2) O=C(Nc1ccc(Oc2ccc(Cl)cc2)c(Cl)c1)c1cc(I)cc(I)c1O
  A: -3.2%; B: -1.1%; C: ?; D: -1.9%; E: -2.5

3) CCCCn1c(NS(=O)(=O)c2ccccc2)c(C(=O)OCC)c2nc3ccccc3nc21
  A: ?; B: 0.0%; C: 44.7µM*; D: ?; E: -2.4

4) Clc1ccc(OCC#CCN2CCCC2)cc1
  A: 11.5%; B: -1.0%; C: -0.6%; D: -1.3%; E: -34.2*

5) Cc1cccc(-n2c(O)c(/C=C3/C(c4ccccc4)=Nc4ccccc43)c(=O)[nH]c2=O)c1
  A: 1.5%; B: -0.3%; C: -1.5%; D: ?; E: -44.4*

6) Cc1ccccc1-n1c(O)c(/C=C2/C(c3ccccc3)=Nc3ccccc32)c(=O)[nH]c1=O
  A: 0.8%; B: 6.0%; C: ?; D: ?; E: -2.3

7) Cc1cc(OCC(=O)N2C[C@H]3C[C@@H](C2)c2cccc(=O)n2C3)c2c(C)c(C)c(=O)oc2c1
  A: -3.1%; B: -0.2%; C: -5.0%; D: -1.4%; E: -59.0*

8) C[C@]12CC[C@H](O)CC1=CCC1C2CC[C@@]2(C)C1CC[C@@H]2OCc1ccccc1 (some centres not stated)
  A: 14.7%; B: -1.2%; C: -7.0%; D: 0.9%; E: -32.3*

9) CC(C)OC(=O)c1cc(C(=O)c2cc(Cl)ccc2O)coc1=N
  A: -18.5%; B: -0.2%; C: -0.3%; D: ?; E: 0.3

10) CN1CC[C@]2(c3cccc(O)c3)Cc3nc4ccccc4cc3C[C@H]2C1
  A: nt; B: 11.2µM*; C: 4.1%; D: nt; E: nt

# Part of the list above, as labelled records.
4) Clc1ccc(OCC#CCN2CCCC2)cc1
  Rango dissoc inh: 11.5% | B2AR arrestin: -1.0% | Mm-Cpn inhibitor: -0.6% | Rango-impB inh: -1.3% | CCT modulator: -34.2*

5) Cc1cccc(-n2c(O)c(/C=C3/C(c4ccccc4)=Nc4ccccc43)c(=O)[nH]c2=O)c1
  Rango dissoc inh: 1.5% | B2AR arrestin: -0.3% | Mm-Cpn inhibitor: -1.5% | Rango-impB inh: ? | CCT modulator: -44.4*

# (cont.)
# Assay codes: A = Rango dissoc inh; B = B2AR arrestin; C = Mm-Cpn inhibitor; D = Rango-impB inh; E = CCT modulator
11) COc1ccc(-n2nnnc2C(c2cccc3ccccc23)N2CCC3(CC2)C(=O)NCN3c2ccccc2)cc1 (configuration not stated)
  A: nt; B: nt; C: nt; D: nt; E: 1.3

12) COC(=O)C1=C(c2ccc(OCc3ccccc3)cc2)C[C@@H]2CC[C@H]1N2C(=O)NCc1ccc(OC)c(OC)c1
  A: -7.4%; B: 18.4µM*; C: 0.8%; D: 0.1%; E: -3.0

13) COC(=O)C1=C(c2ccc(OCc3ccccc3)cc2)C[C@@H]2CC[C@H]1N2C(=O)NCc1ccccc1OC
  A: nt; B: nt; C: nt; D: nt; E: -4.2

14) CN(C)c1ccc(C=C(C#N)C#N)cc1
  A: -6.9%; B: 0.0%; C: -0.6%; D: -2.6%; E: -2.0

15) N#CC(C#N)=Cc1ccc(N2CCCC2)cc1
  A: ?; B: -0.2%; C: -5.2%; D: ?; E: -45.8*

16) O=C(O)c1cccc2c1NC(c1cccc([N+](=O)[O-])c1)C1CC(Sc3ccccc3[N+](=O)[O-])C(Cl)C21 (configuration not stated)
  A: -0.6%; B: -0.2%; C: 2.3%; D: 3.7%; E: -46.2*

17) CC(=O)Nc1ccc(N(C(=O)Cn2nnc3ccccc32)C(C(=O)NC2CCCC2)c2ccc(O)c(O)c2)cc1 (configuration not stated)
  A: -11.8%; B: 0.4%; C: 1.2%; D: ?; E: 0.8

18) O=C1CN=C(c2ccccc2)c2ccccc2N1
  A: 13.4%; B: 0.2%; C: -0.7%; D: -3.3%; E: -53.1*

19) O=C1CN=C(c2ccccc2)c2cc([N+](=O)[O-])ccc2N1
  A: 4.1%; B: -0.6%; C: -3.2%; D: 0.2%; E: -2.8

20) O=C(NC(=S)N1CC1)c1ccccc1
  A: nt; B: nt; C: nt; D: nt; E: 1.4

# Profiles from above.
# Shown for COc1ccc(-n2nnnc2C(c2cccc3ccccc23)N2CCC3(CC2)C(=O)NCN3c2ccccc2)cc1 (configuration not stated) = Rango dissoc inh: nt; B2AR arrestin: nt; Mm-Cpn inhibitor: nt; Rango-impB inh: nt; CCT modulator: 1.3
# Shown for CN(C)c1ccc(C=C(C#N)C#N)cc1 = Rango dissoc inh: -6.9%; B2AR arrestin: 0.0%; Mm-Cpn inhibitor: -0.6%; Rango-impB inh: -2.6%; CCT modulator: -2.0

# Next section:
# Order of values: Rango dissoc inh	B2AR arrestin	Mm-Cpn inhibitor	Rango-impB inh	CCT modulator
21	CCCCOCCCn1c(N)c(C(=O)OC(C)COC)c2nc3ccccc3nc21 (configuration not stated)
  9.2µM*	0.0%	-4.3%	?	2.4
22	O=c1[nH]c2ccccc2n1C1CCN(C(CCc2ccccc2)c2nnnn2C2CCCC2)CC1 (configuration not stated)
  nt	nt	nt	nt	-1.4
23	CCOC(=O)C1CCN(/C=C2\C(=O)NC(=S)N(CC)C2=O)CC1
  8.1%	0.0%	-6.5%	-0.3%	-0.7
24	CCOC(=O)C1CCN(/C=C2/C(=O)NC(=S)N(c3cccc(OC)c3)C2=O)CC1
  -0.8%	0.0%	-0.2%	-2.0%	-42.2*
25	COc1ccc(-n2nnnc2C(c2cccs2)N2CCC(n3c(=O)[nH]c4ccccc43)CC2)cc1 (configuration not stated)
  nt	nt	nt	nt	-1.1
26	Cc1ccc(CN2CCN(CC(=O)N3CCC4(CC3)OCCO4)C2=O)cc1
  -9.7%	0.0%	0.4%	-3.0%	-2.0
27	Cc1ccc(CCN2CC(C(=O)N3CCC4(CC3)OCCO4)CC2=O)cc1 (configuration not stated)
  -4.2%	-0.3%	2.0%	-0.1%	-64.4*
28	O=C1C(Cl)=C(N2CCOCC2)C(=O)N1c1ccccc1F
  21.4%	0.8%	-1.8%	?	1.1
29	N=C1/C(=C\c2ccc(OC(=O)c3ccccc3Cl)cc2)C(=O)N=C2SC(N3CCOCC3)=NN12
  -23.1%	0.0%	-0.2%	?	0.4
30	COc1ccc(N2C(=O)CC(N3CC=C(c4ccccc4)CC3)C2=O)cc1 (configuration not stated)
  -16.6%	-0.3%	-2.3%	0.2%	-61.2*
31	CCOC(=O)c1c(/N=C/C2C(=O)NC(=S)NC2=O)sc(C)c1C
  nt	0.2%	-3.2%	nt	nt
32	CCOC(=O)c1c(/N=C/C2C(=O)NC(=S)NC2=O)sc2c1CCC2
  9.2µM*	0.2%	-0.8%	?	2.2
33	CCOc1ccc2nc(N(CCN(CC)CC)C(=O)c3ccc([N+](=O)[O-])cc3)sc2c1
  3.0%	0.1%	-2.1%	3.9%	-0.1
34	C=C1[C@@H](OC(C)=O)[C@]23C[C@@H]1[C@@H](OC(C)=O)CC2[C@]12C4C[C@H]3[C@H]1N(CC)C[C@]4(C)CC[C@@H]2O (some centres not stated)
  -3.0%	nt	nt	-0.3%	-67.8*
35	O=C(c1cc(Cl)cc(Cl)c1)N1Cc2ccccc2-n2nncc2C1
  nt	nt	nt	nt	0.8
36	CCOP(=O)(C#Cc1ccccc1)C(O)c1ccc(Br)cc1 (configuration not stated)
  13.6%	-0.7%	-0.3%	0.6%	-0.6
37	COP(=O)(C#Cc1ccccc1)C(O)c1ccc(Br)cc1 (configuration not stated)
  -11.1%	-1.7%	-1.0%	0.1%	-104.6*
38	CCCN1C2CCCC1CC(NC(C)=O)C2 (configuration not stated)
  23.7%	-0.2%	0.5%	0.0%	-32.8*
